Reference: patent publication US8846698B2, “Pyrrolo[2,3-d]pyrimidine tropomysin-related kinase inhibitors” (Pfizer Limited, priority 2011, dated 2014)

Protein sequences, listed by entry. Tags and fused reporters are not part of them. Residues count along the entry.
UniProt P04629, 441-796: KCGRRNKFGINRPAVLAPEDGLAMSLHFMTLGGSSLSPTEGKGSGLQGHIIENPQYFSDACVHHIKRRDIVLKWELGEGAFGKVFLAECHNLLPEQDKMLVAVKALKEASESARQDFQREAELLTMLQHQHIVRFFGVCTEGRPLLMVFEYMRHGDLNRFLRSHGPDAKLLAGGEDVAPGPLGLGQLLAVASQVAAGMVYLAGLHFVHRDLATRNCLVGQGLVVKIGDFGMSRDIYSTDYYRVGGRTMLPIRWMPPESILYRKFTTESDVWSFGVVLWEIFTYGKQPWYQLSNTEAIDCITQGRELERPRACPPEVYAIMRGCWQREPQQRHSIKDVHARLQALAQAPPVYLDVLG

Target: TRKA (Homo sapiens (Human), UniProt P04629)
Assay: Isolated TRK enzyme assay (HTRF KinEASE-TK), TRKA
Type: biochemical

Substance “4-benzoyl-N-alpha-(tert-butoxycarbonyl)-N-{5-[(7-isopropyl-7H-pyrrolo[2,3-d]pyrimidin-5-yl)carbonyl]pyridin-3-yl}-L-phenylalaninamide [Example 286]” has an IC50 of 19.5 nM.
